Laboratory results taken from ChEMBL document CHEMBL1127942, “Phenol based tripeptide inhibitors of ras farnesyl protein transferase” (Bioorg Med Chem Lett, 1994).

Target: Protein farnesyltransferase (Homo sapiens, UniProt P49354+P49356)
Assay: Inhibition of Protein farnesyltransferase (FPT)
Type: protein-complex assay
Conditions: read-out: I50

Compound `CC(C)C[C@H](NC(=O)[C@@H](NC(=O)[C@@H](N)CS)C(C)C)C(=O)N[C@@H](CO)C(=O)O` has an IC50 of 1 µM.
